The values below are quoted from earlier work in patent publication US20210369737A1, “PROSTATE FUNCTION SUPPORT FORMULA” (Innovus Pharmaceuticals, Inc., priority 2017, published 2021).

For Copper gluconate, the solubility in ethanol result (ethanol) is reported as “insoluble in ethanol”. For the same substance, the solubility in water result (water) is “soluble in water”.
